Yeast mating assay 1: variants of the scFv Ab-14

From the AlphaSeq antibody data of Engelhart et al. 2022 (doi:10.1038/s41597-022-01779-4), copy in the FLAb collection.

All variants were tested on one target, the spike HR2 peptide PDVDLGDISGINAS (SARS-CoV-2).

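The starting antibody came from a phage panning campaign against this peptide. AAYL49 was designed without a model: most single CDR substitutions and a random sample of double and triple ones. The assay is AlphaSeq: two haploid yeast populations carry antibody and antigen on their surface. After mating in shaken culture at 30 °C for 16 h, diploids were selected and their barcode pairs sequenced. The ratio of observed to expected reads was calibrated, replicate by replicate, on BCL2-family standards whose Kd was known from biolayer interferometry. The assay was run in three technical replicates.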

Parent scFv Ab-14: VH joined to VL by a (GGGGS)3 linker. Changes lie in the heavy chain CDRs alone.
VH: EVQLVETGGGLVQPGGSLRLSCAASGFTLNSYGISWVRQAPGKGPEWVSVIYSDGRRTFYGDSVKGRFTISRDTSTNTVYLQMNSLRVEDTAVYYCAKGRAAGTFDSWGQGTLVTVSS
VL: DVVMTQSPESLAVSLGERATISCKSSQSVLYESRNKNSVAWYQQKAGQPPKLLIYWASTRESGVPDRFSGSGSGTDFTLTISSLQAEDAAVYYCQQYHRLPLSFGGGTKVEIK

Changes read parent residue, position, new residue, counted from the first residue of the VH shown. The Kd shown is the geometric mean over detected replicates; a lower Kd is a better binder. "nd" marks a missing value. The strain was present, yet no cells mated with the target were sequenced in any replicate, which points to weak or no binding.

8.9 nM (3 of 3 replicates; controls 0 of 9) for D62N+F105A+D106E.
6.1 µM (1 of 3 replicates; controls 5 of 9) for T58W+A102G+S107K.
210 nM (3 of 3 replicates; controls 2 of 9) for G61V+A101P.
3.2 µM (2 of 3 replicates; controls 2 of 9) for F27Y+S35E+G55K.
nd (0 of 3 replicates; controls 1 of 9) for Y32C+I51F+D62W.
nd (0 of 3 replicates; controls 1 of 9) for G26F+S35L+A102E.
42 µM (2 of 3 replicates; controls 2 of 9) for S53D+V64A+F105I.
94 µM (1 of 3 replicates; controls 0 of 9) for S53M+D54H+R57D.
nd (0 of 3 replicates; controls 0 of 9) for L29P+D62C.
900 nM (1 of 3 replicates; controls 3 of 9) for D54C+K65H+R100Q.
nd (0 of 3 replicates; controls 0 of 9) for V64I+A102G+T104K.
nd (0 of 3 replicates; controls 2 of 9) for I34C+R100G+A101H.
nd (0 of 3 replicates; controls 1 of 9) for Y52Q+S53H+Y60I.
270 nM (3 of 3 replicates; controls 4 of 9) for T28E+R56G+A101C.
nd (0 of 3 replicates; controls 0 of 9) for V50E+D62H+S63I.
1.5 µM (3 of 3 replicates; controls 8 of 9) for G26N+R56C+G99N.
nd (0 of 3 replicates; controls 4 of 9) for G26H+F27D+I51G.
640 µM (1 of 3 replicates; controls 2 of 9) for G26H+F27W+R100T.
nd (0 of 3 replicates; controls 0 of 9) for G26V+T58E+R100C.
nd (0 of 3 replicates; controls 1 of 9) for R57P+F59C+F105V.
420 nM (3 of 3 replicates; controls 2 of 9) for L29M+N30E+K65N.
nd (0 of 3 replicates; controls 0 of 9) for G55Q+R56F+V64T.
nd (0 of 3 replicates; controls 1 of 9) for T28V+R56H+G61P.
7.9 µM (1 of 3 replicates; controls 1 of 9) for D54H+G61V+S63K.
nd (0 of 3 replicates; controls 0 of 9) for D54F+K65F+S107Y.
90 µM (2 of 3 replicates; controls 0 of 9) for L29P+T104V+D106Q.
660 nM (3 of 3 replicates; controls 3 of 9) for F27P+Y60V+G61Q.
240 µM (1 of 3 replicates; controls 4 of 9) for S35D+S53P+K65G.
nd (0 of 3 replicates; controls 1 of 9) for V50L+S63G+R100S.
540 µM (2 of 3 replicates; controls 5 of 9) for G33P+V50N+S63H.
3.7 µM (1 of 3 replicates; controls 0 of 9) for S35W+F59E+D106W.
nd (0 of 3 replicates; controls 1 of 9) for Y32F+G103S.
400 µM (1 of 3 replicates; controls 3 of 9) for G33A+G61C+A102H.

Excerpt, the final 4 entries:

changes,Kd,seen in,signal with controls
G33P+V50N+S63H,540 µM,2 of 3,5 of 9
S35W+F59E+D106W,3.7 µM,1 of 3,0 of 9
Y32F+G103S,nd,0 of 3,1 of 9
G33A+G61C+A102H,400 µM,1 of 3,3 of 9

Empty control strains, which show no peptide, gave a signal in 15% of pairings with library AAYL49; the median was 11 µM and 95% of these signals were weaker than 680 nM. No background was subtracted. For each scFv, signals with the empty controls are counted beside the result. For reference, the parent read 4.4 nM as the reference entry and 13 µM (one replicate of three) as a member of this library.